The nature of the data set: Humidity stress experiments at 58% relative humidity. The class given is physicochemical. The note with it: 58% RH. An excerpt: A sample of this enterostatin acetate, 1-hydroxy-2-naphthoic acid co-complex of the invention was stressed at 58% relative humidity for 4 or 10 days.
A sample of this enterostatin chloride, 1-hydroxy-2-naphthoic acid co-complex of the invention was stressed at 58% relative humidity for 4 or 10 days.
A sample of each co-complex of the above examples was stressed at 58% relative humidity for either 4 or 10 days. […] The co-complex comprising enterostatin sulfate and piperazine as the guest (Example 6) was a white film after 4 days.
The cocrystal guests piperazine and 1-OH-2-napthoic acid were stressed at 58% relative humidity.

From patent US20070149457A1, “Stable solid forms of enterostatin” (priority 2005, published 2007) come the findings set out here.

In the case of “Enterostatin Acetate, Gentisic Acid [Example 4]”, the “Observations after humidity stress” value (10 days) is “Deliquesced”.
“Enterostatin Phosphate, Adipic Acid [Example 9]”: the “Observations after humidity stress” value (10 days) is “Tacky white goo”.
Take “Enterostatin Phosphate, Piperazine [Example 8]”: the “Observations after humidity stress” value (4 days) is recorded as “Rounded thick tacky solid”.
The same measure, in the same setting: the value for “Enterostatin Sulfate, Piperazine [Example 6]” was “Transparent white film”.
